# Values quoted from earlier work, collected in patent US8440787B2, “Hydroxyapatite-targeting multiarm polymers and conjugates made therefrom” (Nektar Therapeutics, priority 2007, dated 2013).
# Settings: in vivo; Modi et al. (2000) Hepatology 32:371A
substance,measurement,value
PEGASYS: PEG interferon marketed under the PEGASYS brand; pegylated (40 kDa) interferon alpha-2a,PEG associated with the conjugate cleared by cleavage of a urethane bond,up to 30%
